The values that follow come from patent publication US8921559B2, “4-substituted-cyclohexylamino-4-piperidinyl-acetamide antagonists of CCR2” (Janssen Pharmaceutica NV, priority 2010, dated 2014).

Sequences of proteins named here, by UniProt entry; tags and fusion partners are left off. A line that says so, or that is headed by a name, gives the form on record, which may keep a tag or linker.
UniProt P41597, other isoform, or with tags, fused parts or gaps isoform P41597-2: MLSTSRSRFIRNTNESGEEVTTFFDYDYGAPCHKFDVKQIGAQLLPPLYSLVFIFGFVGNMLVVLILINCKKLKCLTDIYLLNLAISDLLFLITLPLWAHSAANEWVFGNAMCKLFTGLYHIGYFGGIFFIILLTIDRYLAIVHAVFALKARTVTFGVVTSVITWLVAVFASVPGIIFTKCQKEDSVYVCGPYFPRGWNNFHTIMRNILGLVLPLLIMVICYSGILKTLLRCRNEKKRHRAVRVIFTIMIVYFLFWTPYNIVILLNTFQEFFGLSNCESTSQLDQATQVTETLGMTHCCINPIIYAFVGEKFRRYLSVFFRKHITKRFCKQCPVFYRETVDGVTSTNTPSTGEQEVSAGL

The target in this experiment is CCR2 (Homo sapiens (Human), UniProt P41597). Briefly: MCP-1 Receptor Binding Assay in THP-1 Cells. As to conditions: 0.5 nM 125I labeled MCP-1, 2 hours at 30° C. On the procedure: Compounds of the invention were subjected to various representative biological tests. The results of these tests are intended to illustrate the invention in a non-limiting fashion. MCP-1 Receptor Binding Assay in THP-1 Cells Human monocytic cell line THP-1 cells were obtained from American Type Culture Collection (Manassas, Va., USA). The THP-1 cells were grown in RPMI-1640 (RPMI: Roswell Park Memorial Institute Medium-cell culture growth media) supplemented with 10% fetal bovine serum in a humidified 5% CO2 atmosphere at 37° C. The cell density was maintained between […].
THP-1 (cells were incubated with 0.5 nM ^125I labeled MCP-1 (Perkin-Elmer Life Sciences, Inc. Boston, Mass.) in the presence of varying concentrations of either unlabeled MCP-1 (R & D Systems, Minneapolis, Minn.) or test compound for 2 hours at 30° C. in a 96 well plate. Cells were then harvested onto a filter plate, dried, and 20 μL of Microscint 20 was added to each well. Plates were counted in a TopCount NXT, Microplate Scintillation & Luminescence Counter (Perkin-Elmer Life Sciences, Inc. Boston, Mass.). Blank values (buffer only) were subtracted from all values and drug treated values were compared to vehicle treated values. 1 μM cold MCP-1 was used for nonspecific binding.
Table 1 lists IC50 values for inhibition of MCP-1 binding to CCR2 obtained for test compounds of the invention. […] Where more than one IC50 value was available, the average of the two most similar values is reported.

Where [1] appears, read: average of the two most similar values where more than one IC50, read-out: Inhibition of MCP-1 Binding IC50 CCR2 Binding.

Each structure is given as a SMILES string. Structures can show the parent of a compound that is named as a salt. Where two headings read alike, the source gives them in different places.

For `NC(=O)C(N[C@H]1CC[C@H](c2c[nH]c3ccccc32)CC1)C1CCN(C(=O)/C=C/c2cc(F)c(F)c(F)c2)CC1` (single isomer, unassigned) [Example 36, R,S-2-[4-(1H-Indol-3-yl)-trans-cyclohexylamino]-2-[1-(trans-3,4,5-trifluorocinnamoyl)-piperidin-4-yl]-acetamide], under setting [1], the 50% inhibitory concentration (IC50) is 0.008 µM.

As to `NC(=O)C(N[C@H]1CC[C@H](c2c[nH]c3ccccc32)CC1)C1CCN(C(=O)/C=C/c2cc(F)cc(F)c2)CC1` (stereo partly drawn) [Example 1a, R,S-2-[4-(1H-Indol-3-yl)-trans-cyclohexylamino]-2-[1-(trans-3,5-difluorocinnamoyl)piperidin-4-yl]-acetamide], the IC50 under setting [1] is 0.013 µM.

In the case of `NC(=O)C(N[C@H]1CC[C@H](c2c[nH]c3ccccc32)CC1)C1CCN(C(=O)/C=C/c2cc(F)cc(F)c2)CC1` (stereo partly drawn) [Example 1b, R,S-2-[4-(1H-Indol-3-yl)-trans-cyclohexylamino]-2-[1-(trans-3,5-difluorocinnamoyl)-piperidin-4-yl]-acetamide dihydrochloride], for the setting “average of the two most similar values where more than one IC50, dihydrochloride, read-out: Inhibition of MCP-1 Binding IC50 CCR2 Binding”, the IC50 came to 0.014 µM.

Regarding `NC(=O)C(N[C@H]1CC[C@@H](c2c[nH]c3ccccc32)CC1)C1CCN(C(=O)/C=C/c2cc(F)cc(F)c2)CC1` (stereo partly drawn) [Example 3, 2-[4-(1H-Indol-3-yl)-cis-cyclohexylamino]-2-[1-(trans-3,5-difluorocinnamoyl)-piperidin-4-yl]-acetamide], the IC50 under setting [1] worked out at 0.74 µM.

`NC(=O)C(NC1CCC(c2c[nH]c3ccccc23)CC1)C1CCN(C(=O)/C=C/c2cc(F)c(F)c(F)c2)CC1` (stereo not drawn) [Example 35, 2-[4-(1H-Indol-3-yl)-cyclohexylamino]-2-[1-(trans-3,4,5-trifluorocinnamoyl)-piperidin-4-yl]-acetamide]: the half-maximal inhibitory concentration (IC50) under setting [1] is 0.025 µM.

Take `NC(=O)C(N[C@H]1CC[C@@H](c2c[nH]c3ccccc32)CC1)C1CCN(C(=O)/C=C/c2cc(F)c(F)c(F)c2)CC1` (stereo partly drawn) [Example 37, R,S-2-[4-(1H-Indol-3-yl)-cis-cyclohexylamino]-2-[1-(trans-3,4,5-trifluorocinnamoyl)-piperidin-4-yl]-acetamide]: under setting [1], the IC50 came out at 0.406 µM.
